## OPERA 2.9 data: logP (octanol/water) values

Source: data files of OPERA 2.9 (Mansouri et al.), github.com/kmansouri/OPERA.

logP is the log10 of the octanol-water partition coefficient; higher is more lipophilic. "via" names the databases from which the curators took the value.

- Nc1c(I)cc(I)c(C(=O)[O-])c1I.[Na+]: log Kow 0.97 (via eChemPortal)
- CC(=O)C(C)O (configuration not stated): log Kow 0.1 (via eChemPortal)
- CC1=C([O-])C(O)CC(C)(C)C1=O.[Na+] (configuration not stated): log Kow -4.274 (via eChemPortal)
- C[C@@H]1O[C@@H](OC[C@H]2O[C@@H](Oc3c(-c4ccc(O)c(O)c4)oc4cc(O)cc(O)c4c3=O)[C@H](O)[C@@H](O)[C@@H]2O)[C@H](O)[C@H](O)[C@H]1O: log Kow -2.02 (via OCHEM)
- O=S(=O)([O-])c1cc(S(=O)(=O)[O-])c2ccc3c(S(=O)(=O)[O-])cc(S(=O)(=O)[O-])c4ccc1c2c43.[Na+].[Na+].[Na+].[Na+]: log Kow -4.5 (via eChemPortal)
- C[C@@H]1C[C@H]2[C@@H]3CCC4=CC(=O)C=C[C@]4(C)[C@@]3(F)[C@@H](O)C[C@]2(C)[C@@]1(O)C(=O)COC(=O)C(C)(C)C: log Kow 3.9 (via OCHEM)
- CC(C)NCC(O)c1ccc(O)c(O)c1.Cl (configuration not stated): log Kow -2.69 (via OCHEM)
- CC1=NN(c2cccc(Cl)c2)C(=O)C1/N=N/c1ccc(S([NH-])(=O)=O)cc1C(=O)[O-].CC1=NN(c2cccc(Cl)c2)C(=O)C1/N=N/c1ccc(S([NH-])(=O)=O)cc1C(=O)[O-].[Cr+3].[H+] (stereo partly drawn): log Kow 4.8 (via eChemPortal)
- CCOc1ccc(N)c([N+](=O)[O-])c1: log Kow 2.38 (via OCHEM)
- C#CCN: log Kow -0.43 (via OCHEM)
- N=C(O)c1c(Cl)c(Cl)c(Cl)c(Cl)c1C(=O)O: log Kow -1.68 (via OCHEM)
- C[N+](C)(C)C1CCCCC1.C[N+](C)(C)C1CCCCC1.O=S(=O)([O-])[O-]: log Kow -3.055 (via eChemPortal)
- CC(=O)Nc1ccc2cc(S(=O)(=O)[O-])c(/N=N/c3ccc(S(=O)(=O)CCOS(=O)(=O)[O-])cc3)c(O)c2c1.[Na+].[Na+]: log Kow 0.002 (via eChemPortal)
- CNC(=C[N+](=O)[O-])NCCSCc1csc(CN(C)C)n1: log Kow 1.1 (via PubChem)
- CC(C)(C)C(N)C(=O)O (racemic): log Kow -1.77 (via OCHEM)
- Cn1c(=O)c(N=Nc2ccc([N+](=O)[O-])cc2)c(O)c2ccccc21: log Kow 2.6 (via eChemPortal)
- Cc1cccc(C)c1OCC(O)COc1c(C)cccc1C: log Kow 3.9 (via eChemPortal)
- CCC(O)CO (configuration not stated): log Kow -0.02 (via OCHEM, eChemPortal)
- CC(C)(C)c1cc(Cc2cc(C(C)(C)C)c(O)c(C(C)(C)C)c2)cc(C(C)(C)C)c1O: log Kow 6.95 (via eChemPortal)
- CCC[SiH](C)C: log Kow 3.22 (via OCHEM)
- ClC1=C(Cl)C(Cl)C(Cl)C(Cl)C1 (configuration not stated): log Kow 3.95 (via OCHEM)
- O=S(=O)([O-])c1ccc(-c2ccccc2)cc1.[Na+]: log Kow -0.67 (via OCHEM)
- O=[N+]([O-])c1cc(Cl)cc(Cl)c1O: log Kow 1.91 (via OCHEM)
- CCCCCCOC(=O)c1cc(=O)[nH]c(=O)[nH]1: log Kow 1.76 (via OCHEM)
- COc1ccccc1N1CCN(CCOCc2ccc(F)cc2)CC1: log Kow 3.6 (via OCHEM)
- CCC(O)Cn1cnc2c(N)ncnc21 (configuration not stated): log Kow 0.14 (via OCHEM)
- O=S(=O)([O-])c1cccc2c(/N=N/c3ccc(/N=N/c4ccc(Nc5ccccc5)c5c(S(=O)(=O)[O-])cccc45)c4ccccc34)cccc12.[Na+].[Na+]: log Kow -0.211 (via eChemPortal)
- COCCOCCOCCO: log Kow -1.29 (via PubChem, eChemPortal)
- N[C@@H](CCCCNC=O)C(=O)O: log Kow -2.84 (via OCHEM)
- O=C(C=Cc1ccccc1)OCc1ccccc1: log Kow 4.18 (via eChemPortal)
- CC(=O)[O-].CCN(CC)c1ccc(/C=C/C2=[N+](C)c3ccccc3C2(C)C)cc1: log Kow -2.4 (via eChemPortal)
- CCN1Cn2c(nc3ccccc3c2=O)C1C (configuration not stated): log Kow 1.02 (via OCHEM)
- CC(=O)[O-].CN(CCC#N)c1ccc(/C=C/C2=[N+](C)c3ccccc3C2(C)C)cc1: log Kow 1.529 (via eChemPortal)

Extract of 3 entries:

* CCC(O)CO (configuration not stated): log Kow -0.02 (via OCHEM, eChemPortal)
* C[N+](C)(C)C1CCCCC1.C[N+](C)(C)C1CCCCC1.O=S(=O)([O-])[O-]: log Kow -3.055 (via eChemPortal)
* Cn1c(=O)c(N=Nc2ccc([N+](=O)[O-])cc2)c(O)c2ccccc21: log Kow 2.6 (via eChemPortal)

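The numbers are reported measurements, compiled and curated for the OPERA QSAR suite. A listed value is a point estimate from one report or more. Conditions of the individual experiments are not part of the data. Where a salt, mixture or single isomer is drawn, the source does not say that exactly this form was tested. Some upstream entries may be estimates or bounds without being marked so.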